pKd: −log10 of the molar value.
Legend:
15N-CaM = 15N-CaM (Homo sapiens, UniProt P0DP23); assay: NMR titration of 15N-CaM with AQP0 peptides; design: species or system vertebrate; conditions: read-out: apparent dissociation constant, secondary binding event (Kd2); resonances from both N- and C-lobes of CaM; fit in XCRVFIT v4.11; 25°C, pH 6.5, Ca^2+; limited number of data points
[1] = target: calmodulin (recombinant vertebrate CaM) (UniProt P0DP23); assay: NMR titration

CC[C@H](C)[C@H](NC(=O)[C@H](CO)NC(=O)[C@H](CC(C)C)NC(=O)[C@H](CCCNC(=N)N)NC(=O)[C@H](CCC(=O)O)NC(=O)[C@H](CO)NC(=O)[C@@H](NC(=O)[C@H](CO)NC(=O)[C@H](CCCCN)NC(=O)[C@H](CC(C)C)NC(=O)[C@H](CCCNC(=N)N)NC(=O)[C@@H]1CCCN1C(=O)[C@H](Cc1ccccc1)NC(=O)[C@@H](N)CC(C)C)C(C)C)C(=O)N[C@@H](CC(C)C)C(=O)N[C@@H](CCCCN)C(=O)NCC(=O)N[C@@H](CO)C(=O)N[C@@H](CCCNC(=N)N)C(=O)N1CCC[C@H]1C(=O)O [AQP0^CBD] gave a pKd (15N-CaM) of about 5.19.

AQP0 Calmodulin Binding Domain peptide gave a Kd1 (primary binding event, estimated from slow exchange) [1] of under 100 nM and a Kd2 (secondary binding event, apparent) [1] of 6.5 µM.

“AQP0^CBD peptide containing a phosphoserine at residue 235” was tested, and the Kd1 (primary binding event) [1] was 3.5 µM, the Kd2 (secondary binding event, C-lobe residues) [1] was 175 µM and the Kd2 (secondary binding event, N-lobe residues) [1] was 33 µM. For the same compound, the stoichiometry N (peptides per CaM) [1] was 2.

Reference: article PMC2605016 (Structure (London, England : 1993), 2008)
